The text below walks through data of patent publication US20030055065A1, “Tricyclic amide and urea compounds useful for inhibition of G-protein function and for treatment of proliferative diseases” (priority 1993, published 2003).

Sequences of proteins named here, by UniProt entry; tags and fusion partners are left off.
UniProt Q02293, whole entry: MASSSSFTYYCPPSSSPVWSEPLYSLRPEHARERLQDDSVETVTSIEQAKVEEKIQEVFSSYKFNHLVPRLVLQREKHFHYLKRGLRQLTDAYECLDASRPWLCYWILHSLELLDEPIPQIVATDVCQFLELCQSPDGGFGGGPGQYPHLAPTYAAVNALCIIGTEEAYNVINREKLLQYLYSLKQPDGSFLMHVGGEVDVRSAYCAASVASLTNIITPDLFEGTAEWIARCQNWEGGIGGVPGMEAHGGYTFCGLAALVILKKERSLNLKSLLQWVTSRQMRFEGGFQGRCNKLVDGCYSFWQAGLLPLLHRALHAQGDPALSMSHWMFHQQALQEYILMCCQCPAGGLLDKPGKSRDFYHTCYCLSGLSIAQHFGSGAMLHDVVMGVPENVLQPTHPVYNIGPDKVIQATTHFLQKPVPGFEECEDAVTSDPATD

Assay [1] addresses T1, farnesyl protein transferase (FPT), partially purified from rat brain (Rattus norvegicus, UniProt Q02293+Q04631).
T1 construct: were partially purified from rat brain by ammonium sulfate fractionation followed by Q-Sepharose
As to the kind of experiment: Inhibition of farnesyl protein transferase (transfer of [3H]farnesyl to Ras-CVLS). Type of assay: biochemical. How it is done:
1. In vitro enzyme assays: Inhibition of farnesyl protein transferase and geranylgeranyl protein transferase.
Human farnesyl protein transferase was also expressed in E. coli, using cDNA clones encoding both the α and β subunits. […] Human farnesyl protein transferase was partially-purified from the soluble protein fraction of E. coli as described above. […] Two forms of val^12-Ha-Ras protein were prepared as substrates for these enzymes, differing in their carboxy terminal sequence. One form terminated in cysteine-valine-leucine-serine (Ras-CVLS) the other in cystein-valine-leucine-leucine (Ras-CVLL). Ras-CVLS is a substrate for the farnesyl protein transferase while Ras-CVLL is a substrate for geranylgeranyl protein transferase I. The cDNAs encoding these proteins were constructed so that the proteins contain an amino-terminal extension of 6 histidine residues. Both proteins were expressed in Escherichia coli and purified using metal chelate affinity chromatography. The radiolabelled isoprenyl pyrophosphate substrates, [^3H]farnesyl pyrophosphate and [3H]geranylgeranyl pyrophosphate, were purchased from DuPont/New England Nuclear.
The reaction was allowed to proceed for 30 minutes at room temperature and then stopped with 0.5 ml of 4% sodium dodecyl sulfate (SDS) followed by 0.5 ml of cold 30% trichloracetic acid (TCA). Samples were allowed to sit on ice for 45 minutes and precipitated Ras protein was then collected on GF/C filter paper mats using a Brandel cell harvester. […] Percent inhibition was calculated relative to the DMSO vehicle control.

The subject of assay [2] is Ras-CVLS processing in COS monkey kidney cells. As to the kind of experiment: COS cell assay: Ras-CVLS processing (Western blot). Type of assay: cell-based. Particulars: Primates, read-out: Inhibition of Ras Processing IC50. On the procedure:
2. […] Effect of farnesyl protein transferase inhibitors on Ras processing and on disordered cell growth induced by transforming Ras. COS monkey kidney cells were transfected by electroporation with the plasmid pSV-SPORT (Gibco/BRL) containing a cDNA insert encoding either Ras-CVLS or Ras-CVLL, leading to transient overexpression of a Ras substrate for either farnesyl protein transferase or geranylgeranyl protein transferase I, respectively (see above). […] After 24 hours, media was removed and fresh media containing the appropriate drugs was re-added. 48 hours after electroporation cells were examined under the microscope to monitor disordered cell growth induced by transforming Ras. Cells expressing transforming Ras become more rounded and refractile and overgrow the monolayer, reminiscent of the transformed phenotype. […] Cells were lysed by homogenization and cell debris was removed by centrifugation at 2000×g for 10 min. Cellular protein was precipitated by addition of ice-cold trichloroacetic acid and redissolved in 100 μl of SDS-electrophoresis sample buffer. […] Proteins resolved on the gels were electroblotted onto nitrocellulose membranes for immunodetection. […] E., et al., (1982), Monoclonal antibodies to the p21 products of the transforming gene of Harvey murine sarcome virus and of the cellular ras gene family, J. Virol. 43: 294-304), in PBS containing 1% fetal calf serum for one hour at room temperature. After washing, membranes were incubated for one hour at room temperature with a 1:5000 dilution of secondary antibody, rabbit anti-rat IgG conjugated to horseradish peroxidase, in PBS containing 1% fetal calf serum.
For orientation: Immunoblotting shows a protein as a band on a membrane.

The mark [3] stands for this setting: Ras-CVLS farnesylation, partially purified rat brain FPT.

One may read the IC50 as the point on the concentration scale where inhibition reaches its midpoint. Turning to `CCOC(=O)N1CCC(C(=O)N2CCN(C3c4ccc(Cl)cc4CCc4cccnc43)CC2)CC1` (stereo not shown) [Example 317], the IC50 in assay [1] (setting [3]) came to 13.3 µM.

As for `O=C(Cc1cccnc1)N1CCN(C2c3ccc(Cl)cc3CCc3ccc[n+]([O-])c32)CC1` (stereo not shown) [184 (5.60)], in assay [2], the IC50 amounted to 11.5 µM.

In the case of `O=C(Nc1ccncc1)N1CCN(C2c3ccc(Cl)cc3CCc3cccnc32)CC1` (stereo not shown) [183 (6.5)], in assay [2], the half-inhibitory concentration (IC50) amounted to 10.5 µM.

Consider `O=C(Cc1ccc(Br)cc1)N1CCN(C2c3ccc(Cl)cc3CCc3cccnc32)CC1` (stereo not shown) [Example 77], for which the IC50 in assay [1] (setting [3]) and in assay [1] (enzyme inhibition) was 2.04 µM throughout.

For `O=C(Cc1ccc[n+]([O-])c1)N1CCN(C2c3ccc(Cl)cc3CCc3cccnc32)CC1` (stereo not shown) [Example 197], the IC50 in assay [2] is 11.1 µM.

Consider `O=C(CN1C(=O)c2ccccc2C1=O)N1CCN(C2c3ccc(Cl)cc3CCc3cccnc32)CC1` (stereo not shown) [Example 76], for which the IC50 in assay [2] came out at 39.9 µM.
